CycPeptMPDB entries from one study

Values of Townsend et al. 2020, doi:10.26434/chemrxiv.13335941.v1, as listed in CycPeptMPDB.

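Conditions beyond the assay type are not listed; see the original paper. The list need not hold all peptides of the study. Entries at the database's floor value (log10 P of -10) are not listed.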

PAMPA is the parallel artificial membrane permeability assay, which has no cells and reads passive diffusion.
Values are log10 P with P in cm/s, so -5 is more permeable than -7.

compound,PAMPA (log10 cm/s)
CCCN1CC(=O)N[C@@H](CC(C)C)C(=O)N[C@@H](Cc2ccccc2)CC(=O)N2CCC[C@@H]2C(=O)N[C@H](CC(C)C)C(=O)N[C@@H](Cc2ccccc2)C1=O,-6.09
CC(C)C[C@H]1NC(=O)[C@@H]2CCCN2C(=O)C[C@H](Cc2ccccc2)NC(=O)CN(Cc2ccccc2)C(=O)[C@H](C)N(C)C(=O)[C@H]2CCCN2C(=O)[C@H](Cc2ccccc2)NC1=O,-6.33
CCCN1CC(=O)N[C@H](CC(C)C)C(=O)N[C@@H](Cc2ccccc2)CC(=O)N2CCC[C@@H]2C(=O)N(C)[C@H](CC(C)C)C(=O)N[C@@H](Cc2ccccc2)C1=O,-5.33
CCCN1CC(=O)N(C)[C@H](CC(C)C)C(=O)N[C@@H](CC(C)C)C(=O)N2CCC[C@H]2C(=O)N(Cc2ccccc2)CC(=O)N[C@@H](Cc2ccccc2)C1=O,-5.69
CCCN1CC(=O)N[C@@H](CC(C)C)C(=O)N(C)[C@H](CC(C)C)C(=O)N2CCC[C@@H]2C(=O)N(Cc2ccccc2)CC(=O)N[C@@H](Cc2ccccc2)C1=O,-5.13
CC(C)C[C@@H]1C(=O)N(Cc2ccccc2)CC(=O)N2CCC[C@@H]2C(=O)N[C@H](CC(C)C)C(=O)N[C@@H](Cc2ccccc2)C(=O)N[C@@H](Cc2ccccc2)CC(=O)N1C,-5.63
CC(C)C[C@H]1C(=O)N(Cc2ccccc2)CC(=O)N2CCC[C@H]2C(=O)N(Cc2ccccc2)CC(=O)N[C@@H](Cc2ccccc2)C(=O)N[C@@H](Cc2ccccc2)CC(=O)N1C,-5.46
CCCN1CC(=O)N(C)[C@H](CC(C)C)C(=O)N(Cc2ccccc2)CC(=O)N2CCC[C@@H]2C(=O)N[C@H](CC(C)C)C(=O)N[C@@H](Cc2ccccc2)C1=O,-5.33
CC(C)C[C@@H]1NC(=O)[C@H](CC(C)C)N(C)C(=O)C[C@H](Cc2ccccc2)NC(=O)[C@@H]2CCCN2C(=O)[C@H](Cc2ccccc2)NC(=O)CN(Cc2ccccc2)C(=O)[C@H]2CCCN2C1=O,-5.33
CC(C)C[C@@H]1C(=O)N(Cc2ccccc2)CC(=O)N2CCC[C@H]2C(=O)N[C@H](CC(C)C)C(=O)N[C@@H](Cc2ccccc2)C(=O)N[C@@H](Cc2ccccc2)CC(=O)N1C,-5.81
CCCN1CC(=O)N[C@H](CC(C)C)C(=O)N(C)[C@@H](CC(C)C)C(=O)N2CCC[C@H]2C(=O)N(Cc2ccccc2)CC(=O)N[C@@H](Cc2ccccc2)C1=O,-5.08
CC(C)C[C@H]1C(=O)N[C@@H](Cc2ccccc2)C(=O)N(C)[C@@H](C)C(=O)N(Cc2ccccc2)CC(=O)N[C@@H](Cc2ccccc2)CC(=O)N2CCC[C@H]2C(=O)N1C,-5.28

Repeated from above, the 2 entries with the highest PAMPA:

| compound | PAMPA (log10 cm/s) |
|---|---|
| CCCN1CC(=O)N[C@H](CC(C)C)C(=O)N(C)[C@@H](CC(C)C)C(=O)N2CCC[C@H]2C(=O)N(Cc2ccccc2)CC(=O)N[C@@H](Cc2ccccc2)C1=O | -5.08 |
| CCCN1CC(=O)N[C@@H](CC(C)C)C(=O)N(C)[C@H](CC(C)C)C(=O)N2CCC[C@@H]2C(=O)N(Cc2ccccc2)CC(=O)N[C@@H](Cc2ccccc2)C1=O | -5.13 |